Here are results for one molecule from US8618158B2, “Therapeutic agents” (Cancer Research Technology Limited, priority 2008, dated 2013).

Amino acid sequences for entries named in this document (tags omitted).
UniProt Q00987, whole entry: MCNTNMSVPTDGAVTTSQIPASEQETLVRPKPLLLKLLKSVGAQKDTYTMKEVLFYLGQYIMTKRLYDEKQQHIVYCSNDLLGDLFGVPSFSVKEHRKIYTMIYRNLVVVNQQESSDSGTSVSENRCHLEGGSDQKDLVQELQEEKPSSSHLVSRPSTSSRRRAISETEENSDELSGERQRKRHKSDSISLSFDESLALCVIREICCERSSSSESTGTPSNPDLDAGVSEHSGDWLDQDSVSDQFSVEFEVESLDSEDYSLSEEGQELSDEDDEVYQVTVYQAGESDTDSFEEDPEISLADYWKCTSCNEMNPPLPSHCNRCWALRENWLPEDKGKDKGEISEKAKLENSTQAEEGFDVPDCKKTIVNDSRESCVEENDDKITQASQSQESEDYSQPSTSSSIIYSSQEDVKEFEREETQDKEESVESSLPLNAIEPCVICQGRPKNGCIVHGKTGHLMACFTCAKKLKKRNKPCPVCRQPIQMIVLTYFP

The assay addresses MDM2-p53 interaction (Homo sapiens (Human), UniProt Q00987). Kind of assay: MDM2-p53 ELISA binding assay. The settings on record: Table 2; mean ± SE of n = 3 unless indicated. The procedure:
Streptavidin-coated 96-well plates are used to immobilise a biotin-tagged IP3 p53-derived peptide ([…]). This is a peptide analogue derived from the p53 binding site for MDM2 ([…]). […] Aliquots of MDM2 generated by in vitro translation are pre-incubated for 20 minutes at room temperature (i.e. 20-25° C.) with test compounds and controls, before transfer into the IP3-coated 96-well plates.
3-(4-Chloro-phenyl)-3-(4-hydroxy-3,5-dimethoxy-benzyloxy)-2-propyl-2,3-dihydro-isoindolin-1-one (NU8231) is currently included as a standard “lead compound” positive control. […] The AP peptide is included as a positive control for biological evaluation of the isoindolinones in the cell free binding assays.
All compounds are dissolved in DMSO and tested at a range of concentrations in the presence of a fixed final concentration of 5% DMSO.
In general terms: ELISA stands for enzyme-linked immunosorbent assay.

For orientation: IC50 means the concentration that inhibits the measured activity by half. Higher therefore signals weaker potency. Consider `O=C1c2ccccc2C(OC2CCC(O)CC2)(c2ccc(Cl)cc2)N1Cc1ccc([N+](=O)[O-])cc1` (stereo not shown) [NU8360, 3-(4-Chlorophenyl)-3-(4-hydroxycyclohexyloxy)-2-(4-nitrobenzyl)-2,3-dihydroisoindol-1-one], for which the IC50 is 0.388 ± 0.107 µM.
